Laboratory results from paper PMC8550792, “Evolution of kinase polypharmacology across HSP90 drug discovery” (Cell Chemical Biology, 2021).
Values joined by “and” are separate entries in the source; they are usually repeats but may differ in a detail not shown here. Equal values may be shown once.

Protein sequences, listed by entry. Tags and fused reporters are not part of them. Lines headed by an entry give the natural chain unless they say otherwise; changes in a name come on top. Residues count along the entry.
UniProt Q9H792: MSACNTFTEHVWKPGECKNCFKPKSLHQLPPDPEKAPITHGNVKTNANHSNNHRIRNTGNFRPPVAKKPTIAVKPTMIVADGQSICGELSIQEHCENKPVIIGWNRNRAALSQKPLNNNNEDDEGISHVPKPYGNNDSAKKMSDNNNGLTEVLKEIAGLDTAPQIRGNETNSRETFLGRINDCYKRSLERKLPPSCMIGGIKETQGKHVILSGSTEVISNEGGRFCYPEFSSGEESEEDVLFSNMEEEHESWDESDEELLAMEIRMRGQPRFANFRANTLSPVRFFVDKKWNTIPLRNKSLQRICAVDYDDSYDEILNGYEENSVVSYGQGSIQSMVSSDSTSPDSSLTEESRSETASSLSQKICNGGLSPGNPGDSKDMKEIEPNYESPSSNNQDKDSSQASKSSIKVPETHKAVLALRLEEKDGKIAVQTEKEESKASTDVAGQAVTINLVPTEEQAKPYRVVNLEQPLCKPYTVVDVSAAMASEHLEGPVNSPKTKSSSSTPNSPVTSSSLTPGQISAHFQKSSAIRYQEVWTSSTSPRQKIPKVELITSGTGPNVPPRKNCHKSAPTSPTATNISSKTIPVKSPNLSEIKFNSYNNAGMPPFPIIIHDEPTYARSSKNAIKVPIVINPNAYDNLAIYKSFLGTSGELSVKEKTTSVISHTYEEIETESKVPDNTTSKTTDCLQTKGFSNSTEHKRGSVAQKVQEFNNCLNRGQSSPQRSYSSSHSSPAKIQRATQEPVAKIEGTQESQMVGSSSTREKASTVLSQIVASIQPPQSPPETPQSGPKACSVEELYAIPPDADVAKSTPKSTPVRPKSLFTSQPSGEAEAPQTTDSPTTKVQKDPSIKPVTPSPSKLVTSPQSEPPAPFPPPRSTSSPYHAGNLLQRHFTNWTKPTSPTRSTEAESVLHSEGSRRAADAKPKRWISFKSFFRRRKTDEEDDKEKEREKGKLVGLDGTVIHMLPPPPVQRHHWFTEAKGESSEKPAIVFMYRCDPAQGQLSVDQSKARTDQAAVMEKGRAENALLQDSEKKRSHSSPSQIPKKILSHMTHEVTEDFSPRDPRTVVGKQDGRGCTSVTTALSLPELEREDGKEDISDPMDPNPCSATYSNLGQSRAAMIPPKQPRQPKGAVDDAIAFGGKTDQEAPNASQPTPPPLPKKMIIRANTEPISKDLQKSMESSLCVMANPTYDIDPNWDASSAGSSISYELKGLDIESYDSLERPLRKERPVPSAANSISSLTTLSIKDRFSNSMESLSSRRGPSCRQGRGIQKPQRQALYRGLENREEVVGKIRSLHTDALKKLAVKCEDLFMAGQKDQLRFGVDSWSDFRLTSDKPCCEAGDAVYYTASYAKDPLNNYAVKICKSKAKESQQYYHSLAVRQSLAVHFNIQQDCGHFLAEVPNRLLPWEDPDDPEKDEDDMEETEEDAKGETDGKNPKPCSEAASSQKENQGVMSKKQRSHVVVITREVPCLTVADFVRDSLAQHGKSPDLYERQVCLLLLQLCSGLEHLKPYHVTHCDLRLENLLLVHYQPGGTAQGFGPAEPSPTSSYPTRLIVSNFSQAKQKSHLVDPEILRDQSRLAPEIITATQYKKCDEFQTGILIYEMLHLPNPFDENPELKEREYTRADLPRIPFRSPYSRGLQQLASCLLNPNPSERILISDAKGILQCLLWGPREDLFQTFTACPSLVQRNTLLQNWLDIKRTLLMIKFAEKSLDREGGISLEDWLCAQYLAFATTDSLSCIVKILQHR
UniProt Q08345, 19-913: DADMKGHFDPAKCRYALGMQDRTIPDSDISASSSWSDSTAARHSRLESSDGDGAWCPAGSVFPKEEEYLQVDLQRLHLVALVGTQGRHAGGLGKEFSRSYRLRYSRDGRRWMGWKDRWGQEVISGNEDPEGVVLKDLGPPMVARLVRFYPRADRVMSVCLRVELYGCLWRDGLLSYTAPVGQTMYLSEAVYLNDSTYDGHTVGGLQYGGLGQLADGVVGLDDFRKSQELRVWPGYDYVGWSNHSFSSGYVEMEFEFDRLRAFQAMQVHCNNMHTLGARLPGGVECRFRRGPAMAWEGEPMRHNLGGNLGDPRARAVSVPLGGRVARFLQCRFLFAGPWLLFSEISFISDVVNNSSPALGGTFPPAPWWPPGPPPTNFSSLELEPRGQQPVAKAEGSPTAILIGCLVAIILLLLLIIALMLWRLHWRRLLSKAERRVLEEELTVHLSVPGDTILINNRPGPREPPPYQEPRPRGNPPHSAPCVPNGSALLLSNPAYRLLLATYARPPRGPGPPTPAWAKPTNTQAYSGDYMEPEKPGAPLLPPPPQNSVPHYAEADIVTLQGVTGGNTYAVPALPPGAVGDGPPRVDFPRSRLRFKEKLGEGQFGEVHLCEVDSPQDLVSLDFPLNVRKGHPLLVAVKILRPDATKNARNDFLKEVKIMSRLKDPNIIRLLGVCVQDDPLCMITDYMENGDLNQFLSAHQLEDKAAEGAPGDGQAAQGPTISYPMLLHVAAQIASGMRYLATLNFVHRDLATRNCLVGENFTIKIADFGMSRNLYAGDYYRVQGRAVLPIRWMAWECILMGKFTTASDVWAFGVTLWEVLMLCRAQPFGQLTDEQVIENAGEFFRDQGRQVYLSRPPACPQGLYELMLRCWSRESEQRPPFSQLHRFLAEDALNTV
UniProt P51451: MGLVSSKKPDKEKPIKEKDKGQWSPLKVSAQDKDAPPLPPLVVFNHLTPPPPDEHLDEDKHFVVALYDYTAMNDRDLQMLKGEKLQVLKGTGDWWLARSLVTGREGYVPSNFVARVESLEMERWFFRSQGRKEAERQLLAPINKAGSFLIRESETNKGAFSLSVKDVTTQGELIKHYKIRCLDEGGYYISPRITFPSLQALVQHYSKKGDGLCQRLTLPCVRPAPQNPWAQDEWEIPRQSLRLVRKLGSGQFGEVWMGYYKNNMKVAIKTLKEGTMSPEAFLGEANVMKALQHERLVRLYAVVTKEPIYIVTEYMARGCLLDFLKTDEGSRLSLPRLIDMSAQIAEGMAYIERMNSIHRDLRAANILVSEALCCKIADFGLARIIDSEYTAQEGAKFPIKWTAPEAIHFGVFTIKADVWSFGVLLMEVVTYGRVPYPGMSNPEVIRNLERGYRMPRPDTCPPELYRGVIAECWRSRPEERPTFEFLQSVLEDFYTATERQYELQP
UniProt P00519, whole entry: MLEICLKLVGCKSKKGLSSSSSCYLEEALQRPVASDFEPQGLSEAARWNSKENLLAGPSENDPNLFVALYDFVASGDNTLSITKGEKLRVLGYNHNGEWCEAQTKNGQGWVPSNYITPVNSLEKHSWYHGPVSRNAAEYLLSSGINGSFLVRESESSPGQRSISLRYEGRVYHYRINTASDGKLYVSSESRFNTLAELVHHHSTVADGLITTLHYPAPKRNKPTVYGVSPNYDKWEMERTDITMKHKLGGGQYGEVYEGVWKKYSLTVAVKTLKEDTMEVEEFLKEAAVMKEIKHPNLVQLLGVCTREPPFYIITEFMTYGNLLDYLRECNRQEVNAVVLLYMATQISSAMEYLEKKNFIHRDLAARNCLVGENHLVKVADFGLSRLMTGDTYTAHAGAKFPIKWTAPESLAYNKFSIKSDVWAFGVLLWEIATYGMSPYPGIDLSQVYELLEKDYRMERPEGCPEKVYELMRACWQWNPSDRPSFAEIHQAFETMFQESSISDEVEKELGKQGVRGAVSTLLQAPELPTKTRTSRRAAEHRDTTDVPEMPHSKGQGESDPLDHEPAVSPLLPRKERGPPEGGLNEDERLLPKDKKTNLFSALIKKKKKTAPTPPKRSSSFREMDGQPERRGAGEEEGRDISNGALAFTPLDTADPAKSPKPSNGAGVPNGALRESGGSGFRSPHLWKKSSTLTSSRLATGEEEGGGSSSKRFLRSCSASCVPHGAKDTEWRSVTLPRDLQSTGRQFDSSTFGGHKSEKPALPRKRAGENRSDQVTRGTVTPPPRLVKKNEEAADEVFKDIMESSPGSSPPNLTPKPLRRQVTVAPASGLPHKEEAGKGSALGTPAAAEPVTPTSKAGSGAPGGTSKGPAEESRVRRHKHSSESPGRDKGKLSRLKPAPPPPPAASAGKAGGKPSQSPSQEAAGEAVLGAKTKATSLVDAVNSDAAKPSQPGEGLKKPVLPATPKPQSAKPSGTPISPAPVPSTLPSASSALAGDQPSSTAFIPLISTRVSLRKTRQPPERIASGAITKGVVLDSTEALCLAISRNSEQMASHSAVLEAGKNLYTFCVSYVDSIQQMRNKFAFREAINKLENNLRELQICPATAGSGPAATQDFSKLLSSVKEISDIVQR
UniProt Q96RG2: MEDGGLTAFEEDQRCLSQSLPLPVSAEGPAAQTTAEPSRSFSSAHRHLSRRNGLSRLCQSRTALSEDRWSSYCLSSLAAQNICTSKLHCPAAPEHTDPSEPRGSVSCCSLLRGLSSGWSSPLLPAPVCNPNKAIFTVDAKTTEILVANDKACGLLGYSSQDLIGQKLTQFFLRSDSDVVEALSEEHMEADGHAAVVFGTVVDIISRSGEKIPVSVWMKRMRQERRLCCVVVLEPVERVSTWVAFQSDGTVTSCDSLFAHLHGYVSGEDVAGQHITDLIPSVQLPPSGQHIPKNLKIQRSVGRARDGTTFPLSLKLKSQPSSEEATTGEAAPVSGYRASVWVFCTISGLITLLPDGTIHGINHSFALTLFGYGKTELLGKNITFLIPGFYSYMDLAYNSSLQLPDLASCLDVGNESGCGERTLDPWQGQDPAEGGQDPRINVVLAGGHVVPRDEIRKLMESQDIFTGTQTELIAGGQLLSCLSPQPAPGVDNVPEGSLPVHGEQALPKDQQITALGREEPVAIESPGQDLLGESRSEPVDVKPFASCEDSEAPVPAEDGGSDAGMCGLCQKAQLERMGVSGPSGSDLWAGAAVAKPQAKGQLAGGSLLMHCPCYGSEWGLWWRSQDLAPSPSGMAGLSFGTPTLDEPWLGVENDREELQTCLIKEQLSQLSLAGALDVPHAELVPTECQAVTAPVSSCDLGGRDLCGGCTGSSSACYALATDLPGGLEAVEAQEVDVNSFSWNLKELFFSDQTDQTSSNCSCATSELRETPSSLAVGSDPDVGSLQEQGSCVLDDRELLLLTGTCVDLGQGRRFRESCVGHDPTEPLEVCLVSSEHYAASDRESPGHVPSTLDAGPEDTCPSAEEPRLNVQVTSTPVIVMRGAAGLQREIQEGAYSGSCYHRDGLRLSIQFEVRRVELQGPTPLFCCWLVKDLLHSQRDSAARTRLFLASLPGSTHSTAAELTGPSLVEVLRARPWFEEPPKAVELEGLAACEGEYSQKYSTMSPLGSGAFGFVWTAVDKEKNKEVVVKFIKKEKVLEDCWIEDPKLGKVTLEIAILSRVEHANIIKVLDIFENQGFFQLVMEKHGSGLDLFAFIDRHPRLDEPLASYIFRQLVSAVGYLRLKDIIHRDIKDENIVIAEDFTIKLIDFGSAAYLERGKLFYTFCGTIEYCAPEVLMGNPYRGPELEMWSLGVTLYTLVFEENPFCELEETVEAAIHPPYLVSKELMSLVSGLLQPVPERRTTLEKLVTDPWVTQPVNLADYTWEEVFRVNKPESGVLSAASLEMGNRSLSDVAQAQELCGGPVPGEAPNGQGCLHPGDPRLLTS
UniProt P04629, 33-796: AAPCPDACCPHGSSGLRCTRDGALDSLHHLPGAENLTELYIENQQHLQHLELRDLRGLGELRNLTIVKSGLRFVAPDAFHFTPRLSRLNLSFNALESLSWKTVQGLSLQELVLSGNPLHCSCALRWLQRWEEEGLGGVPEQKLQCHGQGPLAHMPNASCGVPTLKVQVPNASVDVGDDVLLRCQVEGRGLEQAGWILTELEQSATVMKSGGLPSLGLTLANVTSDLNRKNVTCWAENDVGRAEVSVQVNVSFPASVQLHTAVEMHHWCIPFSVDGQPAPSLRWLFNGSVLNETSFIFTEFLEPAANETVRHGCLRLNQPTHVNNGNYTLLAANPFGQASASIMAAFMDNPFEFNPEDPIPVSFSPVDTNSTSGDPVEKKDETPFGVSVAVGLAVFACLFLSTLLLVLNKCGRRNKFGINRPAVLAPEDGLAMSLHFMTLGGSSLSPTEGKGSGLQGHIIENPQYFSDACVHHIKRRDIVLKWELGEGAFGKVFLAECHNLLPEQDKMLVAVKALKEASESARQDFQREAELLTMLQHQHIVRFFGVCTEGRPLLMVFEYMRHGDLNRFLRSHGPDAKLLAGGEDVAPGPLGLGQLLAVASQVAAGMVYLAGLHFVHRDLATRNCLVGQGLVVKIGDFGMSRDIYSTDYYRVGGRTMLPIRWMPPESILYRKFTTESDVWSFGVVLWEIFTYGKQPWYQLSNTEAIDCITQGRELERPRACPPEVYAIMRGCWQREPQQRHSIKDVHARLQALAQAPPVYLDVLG

Legend:
ABL2/ARG = molecular target: T1, ABL2/ARG (Homo sapiens, UniProt P42684); assay: HotSpot in vitro kinase radiometric assay; assay type: biochemical; settings: 10uM, ATP 30 uM, Data 1, Data 2
T1 construct: purchased Reaction Biology (HotSpot contract assay)

PEAK1 = molecular target: T2, PEAK1 (Homo sapiens, UniProt Q9H792); assay: HotSpot in vitro kinase radiometric assay; assay type: biochemical; settings: 10uM, ATP 30 uM, Data 1, Data 2
T2 construct: purchased Reaction Biology (HotSpot contract assay)

HSP90AB1 = settings: average of reported values; ref ChEMBL23 (accessed: 23/08/2018); cited from earlier work
PDK4/PDKH4 = molecular target: T3, PDK4/PDKH4 (Homo sapiens, UniProt Q16654); assay: HotSpot in vitro kinase radiometric assay; assay type: biochemical; settings: ATP 30 uM
T3 construct: purchased Reaction Biology (HotSpot contract assay)

FGR = molecular target: T4, FGR (Homo sapiens, UniProt P09769); assay: HotSpot in vitro kinase radiometric assay; assay type: biochemical; settings: 10uM, ATP 50 uM, Data 1, Data 2
T4 construct: purchased Reaction Biology (HotSpot contract assay)

c-Src = molecular target: T5, c-Src (Homo sapiens, UniProt P12931); assay: HotSpot in vitro kinase radiometric assay; assay type: biochemical; settings: 10uM, ATP 15 uM, Data 1, Data 2
T5 construct: purchased Reaction Biology (HotSpot contract assay)

DDR1 = DDR1 (Homo sapiens, UniProt Q08345); assay: HotSpot in vitro kinase radiometric assay; assay type: biochemical; design: purchased Reaction Biology (HotSpot contract assay); settings: 10uM, ATP 100 uM, Data 1, Data 2
BLK = molecular target: T6, BLK (Homo sapiens, UniProt P51451); assay: HotSpot in vitro kinase radiometric assay; assay type: biochemical; settings: 10uM, ATP 10 uM, Data 1, Data 2
T6 construct: purchased Reaction Biology (HotSpot contract assay)

TRKC = molecular target: T7, TRKC (Homo sapiens, UniProt Q16288); assay: HotSpot in vitro kinase radiometric assay; assay type: biochemical; settings: 10uM, ATP 100 uM, Data 1, Data 2
T7 construct: purchased Reaction Biology (HotSpot contract assay)
T7 sequence (Q16288 32-839): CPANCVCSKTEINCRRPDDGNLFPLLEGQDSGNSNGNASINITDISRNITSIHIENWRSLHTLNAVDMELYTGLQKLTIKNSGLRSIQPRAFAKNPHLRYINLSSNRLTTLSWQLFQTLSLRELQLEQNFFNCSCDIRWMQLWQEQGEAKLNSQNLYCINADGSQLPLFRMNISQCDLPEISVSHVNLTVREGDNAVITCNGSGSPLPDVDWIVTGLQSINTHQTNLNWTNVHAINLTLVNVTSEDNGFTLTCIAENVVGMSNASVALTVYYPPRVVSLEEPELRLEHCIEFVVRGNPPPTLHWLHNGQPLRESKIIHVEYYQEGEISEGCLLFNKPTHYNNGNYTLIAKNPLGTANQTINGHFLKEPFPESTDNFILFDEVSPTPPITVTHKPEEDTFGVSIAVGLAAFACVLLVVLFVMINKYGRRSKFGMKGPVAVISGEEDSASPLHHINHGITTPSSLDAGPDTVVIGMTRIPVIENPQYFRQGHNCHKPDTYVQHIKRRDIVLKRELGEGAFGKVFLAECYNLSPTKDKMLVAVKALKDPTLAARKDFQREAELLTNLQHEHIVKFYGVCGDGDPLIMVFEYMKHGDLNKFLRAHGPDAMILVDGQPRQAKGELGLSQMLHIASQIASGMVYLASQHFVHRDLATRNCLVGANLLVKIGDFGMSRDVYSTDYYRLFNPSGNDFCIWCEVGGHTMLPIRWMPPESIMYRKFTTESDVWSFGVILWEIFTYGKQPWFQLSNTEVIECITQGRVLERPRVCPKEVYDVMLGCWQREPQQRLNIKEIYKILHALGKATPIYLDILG

LCK = molecular target: T8, LCK (Homo sapiens, UniProt P06239); assay: HotSpot in vitro kinase radiometric assay; assay type: biochemical; settings: 10uM, ATP 15 uM, Data 1, Data 2
T8 construct: purchased Reaction Biology (HotSpot contract assay)

LYN B = molecular target: T9, LYN B (Homo sapiens, UniProt P07948); assay: HotSpot in vitro kinase radiometric assay; assay type: biochemical; settings: 10uM, ATP 20 uM, Data 1, Data 2
T9 construct: purchased Reaction Biology (HotSpot contract assay)

YES/YES1 = molecular target: T10, YES/YES1 (Homo sapiens, UniProt P07947); assay: HotSpot in vitro kinase radiometric assay; assay type: biochemical; settings: 10uM, ATP 50 uM, Data 1, Data 2
T10 construct: purchased Reaction Biology (HotSpot contract assay)

ABL1 = ABL1 (Homo sapiens, UniProt P00519); assay: HotSpot in vitro kinase radiometric assay; assay type: biochemical; design: purchased Reaction Biology (HotSpot contract assay); settings: 10uM, ATP 40 uM, Data 1, Data 2
CBR1 = settings: average of reported values; ref ChEMBL23 (accessed: 23/08/2018); cited from earlier work
PASK = molecular target: T11, PASK (Homo sapiens, UniProt Q96RG2); assay: HotSpot in vitro kinase radiometric assay; assay type: biochemical; settings: 10uM, ATP 50 uM, Data 1, Data 2
T11 construct: purchased Reaction Biology (HotSpot contract assay)

TRKA = molecular target: T12, TRKA (Homo sapiens, UniProt P04629); assay: HotSpot in vitro kinase radiometric assay; assay type: biochemical; settings: 10uM, ATP 100 uM, Data 1, Data 2
T12 construct: purchased Reaction Biology (HotSpot contract assay)

PDK2/PDHK2 = molecular target: T13, PDK2/PDHK2 (Homo sapiens, UniProt Q15119); assay: HotSpot in vitro kinase radiometric assay; assay type: biochemical; settings: 10uM, ATP 15 uM, Data 1, Data 2
T13 construct: purchased Reaction Biology (HotSpot contract assay)

HSP90AA1 = settings: average of reported values; ref ChEMBL23 (accessed: 23/08/2018); cited from earlier work
FYN = molecular target: T14, FYN (Homo sapiens, UniProt P06241); assay: HotSpot in vitro kinase radiometric assay; assay type: biochemical; settings: 10uM, ATP 30 uM, Data 1, Data 2
T14 construct: purchased Reaction Biology (HotSpot contract assay)

382 unique human kinases = molecular target: T15, 382 unique human kinases (Homo sapiens, UniProt Q9NZJ5); settings: read-out: Control Compound IC50*; EIF2AK3
T15 sequence (Q9NZJ5 30-1116): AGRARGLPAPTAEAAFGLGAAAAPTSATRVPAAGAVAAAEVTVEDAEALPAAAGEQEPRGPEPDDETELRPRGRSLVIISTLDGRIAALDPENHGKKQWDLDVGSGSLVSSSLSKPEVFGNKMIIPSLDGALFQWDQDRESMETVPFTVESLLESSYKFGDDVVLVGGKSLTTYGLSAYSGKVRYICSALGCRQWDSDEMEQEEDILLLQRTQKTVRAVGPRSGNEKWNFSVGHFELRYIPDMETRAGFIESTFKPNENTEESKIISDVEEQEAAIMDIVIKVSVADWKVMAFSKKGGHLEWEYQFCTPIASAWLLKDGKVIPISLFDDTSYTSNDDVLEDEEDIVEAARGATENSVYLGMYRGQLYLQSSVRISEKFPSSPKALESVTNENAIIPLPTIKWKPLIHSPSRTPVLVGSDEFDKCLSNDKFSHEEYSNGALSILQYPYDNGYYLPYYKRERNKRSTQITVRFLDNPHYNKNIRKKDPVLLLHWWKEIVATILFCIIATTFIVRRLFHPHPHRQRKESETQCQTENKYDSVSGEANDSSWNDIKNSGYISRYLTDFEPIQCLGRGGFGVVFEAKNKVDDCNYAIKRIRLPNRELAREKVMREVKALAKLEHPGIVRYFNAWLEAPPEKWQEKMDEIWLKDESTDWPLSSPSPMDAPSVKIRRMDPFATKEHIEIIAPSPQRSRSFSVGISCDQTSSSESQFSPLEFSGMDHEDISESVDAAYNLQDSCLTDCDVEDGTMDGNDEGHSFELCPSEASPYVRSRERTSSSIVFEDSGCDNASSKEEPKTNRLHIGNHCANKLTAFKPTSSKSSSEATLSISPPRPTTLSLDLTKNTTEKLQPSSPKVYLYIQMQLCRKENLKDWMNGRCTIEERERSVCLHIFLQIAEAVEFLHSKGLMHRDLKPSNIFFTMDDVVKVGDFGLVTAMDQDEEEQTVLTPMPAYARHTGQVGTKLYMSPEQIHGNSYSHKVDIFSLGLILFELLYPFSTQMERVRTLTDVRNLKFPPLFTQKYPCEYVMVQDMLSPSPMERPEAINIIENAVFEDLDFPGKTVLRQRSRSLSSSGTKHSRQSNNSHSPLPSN

C[C@@H]1C[C@H]2O[C@@H]2/C=C\C=C\C(=O)Cc2c(Cl)c(O)cc(O)c2C(=O)O1 [Radicicol]
% Enzyme Activity (relative to DMSO controls) (ABL2/ARG): 112.62%
% Enzyme Activity (relative to DMSO controls) (PEAK1): 108.68%
pActivity, HSP90AB1 (HSP90AB1): 7.6
% Enzyme Activity (relative to DMSO controls) (PDK4/PDKH4; 10uM, Data 1, Data 2): 99.74%
remaining activity at 10 µM (PDK4/PDKH4; Data 1, Data 2, read-out: % Enzyme Activity (relative to DMSO controls)): 94.2%
% Enzyme Activity (relative to DMSO controls) (FGR): 118%
% Enzyme Activity (relative to DMSO controls) (c-Src): 103.4%
% Enzyme Activity (relative to DMSO controls) (DDR1): 105.98%
% Enzyme Activity (relative to DMSO controls) (BLK): 111.62%
% Enzyme Activity (relative to DMSO controls) (TRKC): 97.14%
% Enzyme Activity (relative to DMSO controls) (LCK): 118%
% Enzyme Activity (relative to DMSO controls) (LYN B): 115.59%
% Enzyme Activity (relative to DMSO controls) (YES/YES1): 104.61%
% Enzyme Activity (relative to DMSO controls) (ABL1): 109.61%
pActivity, CBR1 (CBR1): 5.88
% Enzyme Activity (relative to DMSO controls) (PASK): 104.19%
% Enzyme Activity (relative to DMSO controls) (TRKA): 106.48%
% Enzyme Activity (relative to DMSO controls) (PDK2/PDHK2): 115.9% and 95.66%
pActivity, HSP90AA1 (HSP90AA1): 7.7
% Enzyme Activity (relative to DMSO controls) (FYN): 110.97%

Cn1cc(-c2ccc3c(c2)CCN3C(=O)Cc2cccc(C(F)(F)F)c2)c2c(N)ncnc21 [GSK-2606414]
IC50 (382 unique human kinases): 0.553 nM
